This note sets out measurements from paper PMC12029836, “Phytotoxicity, Cytotoxicity, and Antimicrobial Activity of Triethanolammonium Amino Acids Salts” (Molecules, 2025).

The test system of one assay is L929 fibroblasts. The experiment in a line: Mammalian cell cytotoxicity screening, resazurin viability. The assay is classed as cell-based, mouse.
The subject of the next assay is E. coli ATCC 8739. The experiment in a line: Antimicrobial activity, broth microdilution MIC/MBC. The assay is classed as cell-based, Escherichia coli. Particulars: nd—not detected. A general note: In broth dilution the organism is exposed to a series of concentrations in liquid medium.
Another assay deals with C. albicans ATCC 10231. Described as above. The assay is classed as cell-based, Candida albicans. Particulars: nd—not detected.

“And” between values parts separate entries of the source, which are not always exact repeats. Equal entries are not always repeated. This is a selection: effects in other tests are not listed, and their absence says nothing.

For `OCCN(CCO)CCO`, the results for the ED20 in the assay on L929 fibroblasts (24h exposure) and with L929 fibroblasts (48h exposure) were 0.22±0.01% and 0.12±0.01%, respectively. Moreover, the ED50 was 0.33±0.02% and 0.33% with L929 fibroblasts (24h exposure); 0.22±0.01% and 0.22% in the assay on L929 fibroblasts (48h exposure). Moreover, the ED80 turned out to be 0.44±0.02% in the assay on L929 fibroblasts (24h exposure) and 0.33±0.02% in the assay on L929 fibroblasts (48h exposure). For the same compound, the “MIC (%)” value against E. coli ATCC 8739 (E. coli ATCC 8739, 24 h at 37 °C, at least 90% growth inhibition) came to 3.13%; against C. albicans ATCC 10231 (C. albicans ATCC 10231, 24 h at 37 °C, at least 90% growth inhibition), 6.25%. For the same compound, the “MBC (%)” value is listed as 3.13% against E. coli ATCC 8739 (E. coli ATCC 8739) and 25% in the assay on C. albicans ATCC 10231 (C. albicans ATCC 10231).
